This note sets out measurements from patent US20240116893A1, “Compounds for Disease Treatment” (Duke University, priority 2021, published 2024).

Protein sequences, listed by entry. Tags and fused reporters are not part of them.
UniProt Q9NWZ3, whole entry: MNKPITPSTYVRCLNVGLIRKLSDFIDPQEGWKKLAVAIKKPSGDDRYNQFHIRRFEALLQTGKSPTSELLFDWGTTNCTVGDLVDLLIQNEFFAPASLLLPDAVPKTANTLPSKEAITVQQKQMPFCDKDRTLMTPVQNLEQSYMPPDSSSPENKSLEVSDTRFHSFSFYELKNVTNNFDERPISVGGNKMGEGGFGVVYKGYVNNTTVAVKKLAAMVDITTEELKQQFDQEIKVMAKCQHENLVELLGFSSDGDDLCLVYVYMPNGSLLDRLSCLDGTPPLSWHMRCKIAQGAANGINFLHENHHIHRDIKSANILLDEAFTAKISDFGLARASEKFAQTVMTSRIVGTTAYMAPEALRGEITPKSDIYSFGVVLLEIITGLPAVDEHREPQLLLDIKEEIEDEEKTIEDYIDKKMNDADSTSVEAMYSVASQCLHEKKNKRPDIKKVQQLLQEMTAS

The target in this assay is IRAK4 (Homo sapiens (Human), UniProt Q9NWZ3). Kind of assay: IRAK4 kinase inhibition IC50 (TABLE 1; FIG. 1B selectivity screening). It counts as biochemical. As to conditions: selectivity for TAK1 over IRAK4.

For the compound `CCCn1c(=NC(=O)c2cccc(C(N)=O)c2)[nH]c2ccc(CN(C)C)cc21`, the “Ratio IC50 (IRAK4)/IC50 (TAK1)” value was 35.
With `CCCn1c(=NC(=O)c2cccc(C(N)=O)c2)[nH]c2cc(CN3CCCCC3)ccc21` the figure was 2.
